Literature values, collected in patent publication US6255337A, “Anti-first-pass effect compounds and citrus extract” (Bioavailability Systems, L.L.C., priority 1999, dated 2001).

Settings: with inhibitors commonly given to humans; in words; cited from earlier work

Cc1ncc2n1-c1ccc(Cl)cc1C(c1ccccc1F)=NC2 [midazolam]
increase of bioavailability by inhibitors: bioavailability is increased by inhibitors
